Compound activity as filed in PubChem BioAssay.
This is a sample that favours compounds with a hit; in the whole collection about 0.94% have one here.
Exocytosis inh: blocks lytic granule exocytosis; TALL-104 LAMP-1 surface exposure, flow cytometry; cells stimulated with thapsigargin and PMA; inhibition, % at 10 µM; hit rate 0.66% among 360,000; AID 651702;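 active means inhibition above about 55%, limit read from the data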
PKA-R2B activ: activates the human PKA-R2B holoenzyme complex | hit rate 0.079% among 340,000 | PKA-R2B holoenzyme dissociation, Cy5-IP20 fluorescence polarization; R2B truncated from residue 108, S112A mutant; 0% DMSO only, 100% 113 µM cGMP | activation, % at 11.4 µM | P22694+P31323;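 active means activation above a cutoff set at the mean over all compounds plus 3 SD, cut at about 18% in these data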;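 further: higher means more holoenzyme dissociation and a rise in polarization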
pCIP destab: lowers stability of the mouse p/CIP coactivator protein | Q05BA5 | F442A p/CIP-EGFP cells, EGFP fluorescence, 16 h | decrease of EGFP signal, % at 10 µM | hit rate 0.01% among 290,000 | AID 1984;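 active means EGFP signal decrease of at least 30% at 10 µM or well 3 SD below plate mean, unless failing retest; inactive means the rest, including hits failing retest or dose response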
ABCB6 inh 2: inhibitors of human ABC transporter ABCB6 | Q9NP58 | K562-ABCB6 porphyrin accumulation, flow cytometry, 1 h; active compounds read low | fluorescence ratio to DMSO, % at 10 µM | hit rate 0.19% among 360,000 | AID 602162;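 active means fluorescence ratio to DMSO below 75%, the collection mean minus 3 SD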;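 further: signal is porphyrin accumulated inside mitochondria; 100% equals median channel fluorescence of DMSO control wells; lower ratio means ABCB6 inhibition with less porphyrin fluorescence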
Yeast UUG start: modulators of yeast start codon fidelity, primary screen, whole organism, S. cerevisiae, single point, plate reader | AID 602363, 2012 | S. cerevisiae UUG-firefly luciferase reporter, luminescence/redox ratio | activity score, % at 18.7 µM | hit rate 0.13% among 350,000;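 active = replicate mean at a twofold rise or more, about +100% in these data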;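 also: firefly luciferase made from a UUG start codon reports start codon fidelity; reporter light over untreated wells divided by growth signal over untreated wells; some hits fall short of that in this replicate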
PKA-R1A act: activators of PKA-R1A complex; P00514+P68181; PKA-R1A dissociation, Cy5-IP20 fluorescence polarization; scaled: DMSO 0%, 113 µM cGMP 100%; activation, % at 11.4 µM; hit rate 0.083% among 340,000;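 active means percent activation above the mean of all tested compounds plus 3 SD, cut at about 19% in these data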;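 further: higher means more PKAc released from R1A so a rise in polarization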
* = called active by the depositor; · = no result given.

Assay codes: A = Exocytosis inh; B = PKA-R2B activ; C = pCIP destab; D = ABCB6 inh 2; E = Yeast UUG start; F = PKA-R1A act
> C[C@@H](NC(=O)C[C@@H]1C[C@@H]2c3cc(NC(=O)Nc4ccccc4F)ccc3O[C@@H]2[C@@H](CO)O1)c1ccccc1
  A = ·	B = ·	C = ·	D = ·	E = -3	F = ·
> O=[N+]([O-])c1ccc(Sc2nc3ccccc3o2)c([N+](=O)[O-])c1
  A = 22	B = -1	C = -9	D = 96	E = -25	F = -18
> O=c1[nH]c(Sc2ccc([N+](=O)[O-])cc2[N+](=O)[O-])nc2ccccc12
  A = 90*	B = 4	C = ·	D = 94	E = -16	F = 2
> COc1ccccc1C(=O)Nc1ccccc1N1CCCCC1
  A = 67*	B = 10	C = -9	D = 99	E = 2	F = 8
> Cc1c(/C=N/NC(=O)c2ccccc2O)c2ccccn2c1C(=O)c1ccc(F)cc1
  A = 78*	B = -7	C = -27	D = 90	E = ·	F = -11
> Cc1c(/C=N/NC(=O)c2ccc(O)cc2)c2ccccn2c1C(=O)c1ccc(F)cc1
  A = 23	B = -6	C = -3	D = 83	E = ·	F = -2
> CNC(=O)C[C@@H]1CC[C@H]2[C@@H](COc3ccc(NC(=O)c4ccc(F)c(F)c4)cc3C(=O)N2C)O1
  A = ·	B = ·	C = ·	D = ·	E = 1	F = ·
> O=C1C(SCCO)=C(SCCO)C(=O)c2ccccc21
  A = 97*	B = 5	C = ·	D = 152	E = -42	F = 1
> CC(C)C[C@@]12C(=O)N(c3cccc(F)c3)C(=O)N1[C@H](c1ccc(Br)cc1)[C@@H]1C(=O)N(C(C)(C)C)C(=O)[C@@H]12
  A = 77*	B = 0	C = ·	D = 98	E = 3	F = -9
> CC(C)C[C@@]12C(=O)N(c3cccc(Cl)c3)C(=O)N1[C@H](c1ccc(Br)cc1)[C@@H]1C(=O)N(C(C)(C)C)C(=O)[C@@H]12
  A = -5	B = 4	C = ·	D = 94	E = -7	F = 2
> O=C1NC(=S)N(C(=O)c2ccc(F)cc2)/C1=C/c1cccnc1
  A = -4	B = ·	C = -2	D = 15*	E = -9	F = ·
> COc1ccc(/C=C2\C(=O)NC(=S)N2C(=O)c2ccc(C)cc2)cc1
  A = -1	B = 0	C = -7	D = 97	E = ·	F = -5
> CC(=O)C1=C(c2cccc([N+](=O)[O-])c2)N(C(C)=O)n2c(C)nnc2S1
  A = 56*	B = 5	C = -21	D = 102	E = ·	F = -11
> CCc1cnc(N2[C@H](CO)[C@@H](c3ccc(C#Cc4ccccc4F)cc3)[C@@H]2C#N)s1
  A = ·	B = ·	C = ·	D = ·	E = -15	F = ·
> O=C(CCNc1ccc(Cc2ccncc2)cc1)c1ccc([N+](=O)[O-])cc1
  A = 90*	B = 2	C = -11	D = 99	E = ·	F = 8
> O=C(CCNc1ccc(F)cc1)c1cccc([N+](=O)[O-])c1
  A = 34	B = -3	C = 1	D = 97	E = -11	F = 11
> O=C(CCNc1ccc(Br)cc1)c1cccc([N+](=O)[O-])c1
  A = 86*	B = -4	C = -12	D = 94	E = ·	F = -3
> CC(C)c1cn(CC[C@@H]2CC[C@H](NS(=O)(=O)Cc3ccccc3)[C@@H](CO)O2)nn1
  A = ·	B = ·	C = ·	D = ·	E = -7	F = ·
> Cc1cc(N/N=C/c2ccc(O)c(C)c2O)nc(-c2ccccc2O)n1
  A = 80*	B = -10	C = -1	D = 94	E = 6	F = -6
> C/C(=N\Nc1cc(C)nc(-c2ccccc2O)n1)c1ccccc1
  A = -1	B = 0	C = -16	D = 103	E = ·	F = 5
> CN1C(=O)/C(=N/OC(=O)c2ccccc2)c2ccccc21
  A = 87*	B = -7	C = 8	D = 103	E = ·	F = 3
> O=C(O/N=C1\C(=O)N(c2ccccc2)c2ccccc21)C1CC1
  A = 4	B = -3	C = 3	D = 98	E = ·	F = -4
> C[C@H](CO)N1C[C@H](C)[C@H](CN(C)C(=O)CCCN(C)C)OCCCC[C@H](C)Oc2ccc(NC(=O)Cc3ccccc3)cc2C1=O
  A = ·	B = ·	C = ·	D = ·	E = 16	F = ·
> O=C(CSc1nnc(-c2cnccn2)n1Cc1ccco1)c1ccc2ccccc2c1
  A = 2	B = -9	C = 47*	D = 92	E = ·	F = 7
> NC(=O)CC(NC(=O)c1ccc(Br)cc1)c1ccc(N2CCN(c3ccccn3)CC2)c([N+](=O)[O-])c1 (stereo not drawn)
  A = 65*	B = -7	C = 6	D = 98	E = 37	F = -5
> NC(=O)CC(NC(=O)c1cccc(Br)c1)c1ccc(N2CCN(c3ccccn3)CC2)c([N+](=O)[O-])c1 (stereo not drawn)
  A = -8	B = -4	C = -12	D = 94	E = 5	F = 7
> Nc1ccc(S(=O)(=O)c2cc(O)c3ccccc3c2O)cc1
  A = 88*	B = -13	C = ·	D = 95	E = ·	F = 5
> O=S(=O)(c1ccccc1)c1cc(O)ccc1O
  A = -2	B = -4	C = -6	D = 94	E = -13	F = 7
> O=C(C[C@@H]1C=C[C@@H](NC(=O)Nc2ccc(F)cc2)[C@H](CO)O1)NCc1cccc(F)c1
  A = ·	B = ·	C = ·	D = ·	E = -5	F = ·
> C/C(=N\NC(=S)NCCc1ccccc1)c1ccc(Cl)cc1Cl
  A = 88*	B = -4	C = -10	D = 97	E = -27	F = -1
> CN(C)C(=O)c1cccc(-c2ccc3c(c2)[C@H]2[C@H](CCN2C(=O)c2ccncc2)[C@@H](CO)N3C)c1
  A = ·	B = ·	C = ·	D = ·	E = 2	F = ·
> CCNC(=O)Nc1ccc2c(c1)C(=O)N(C)[C@@H]1CC[C@@H](CC(=O)NCc3cccc(F)c3)O[C@@H]1CO2
  A = ·	B = ·	C = ·	D = ·	E = -13	F = ·
> CCNC(=S)Nc1ccc2c(c1)oc1ccccc12
  A = 59*	B = 0	C = ·	D = 95	E = -30	F = -6
> CNC1(C(N)=O)CCNCC1
  A = 7	B = 4	C = 39*	D = 92	E = -11	F = -4
> O=C(/C=C/c1cc[n+](CC(=O)c2ccc3cccc4c3c2CC4)cc1)c1ccc2cccc3c2c1CC3
  A = 70*	B = 16	C = -21	D = 108	E = ·	F = 15
> O=C(C[n+]1ccc2ccccc2c1)c1cccc2ccccc12
  A = 1	B = 7	C = 10	D = 114	E = ·	F = 7
> C[C@@H]1CN([C@@H](C)CO)C(=O)Cc2cc(NC(=O)Nc3ccc(C(F)(F)F)cc3)ccc2O[C@H]1CN(C)C(=O)Nc1cccc2ccccc12
  A = ·	B = ·	C = ·	D = ·	E = -5	F = ·
> Cc1cccc(Oc2nc3ccccn3c(=O)c2/C=C(\C#N)C(=O)NC2CCS(=O)(=O)C2)c1C (stereo not drawn)
  A = 68*	B = -7	C = 0	D = 101	E = 18	F = -2
> Cc1cccn2c(=O)c(/C=C(\C#N)C(=O)NC3CCS(=O)(=O)C3)c(Oc3ccc(F)cc3)nc12 (stereo not drawn)
  A = 74*	B = -13	C = 0	D = 89	E = -17	F = -5
> C=CCN1C(=O)/C(=C/c2ccc(-c3ccc(F)cc3)o2)SC1=S
  A = 93*	B = 5	C = -10	D = 153	E = -16	F = -7
> C=CCNc1nnc(SC2CC(=O)N(c3ccc(OCCC)cc3)C2=O)s1 (stereo not drawn)
  A = 66*	B = -8	C = -3	D = 80	E = -11	F = 0
> CCCCS(=O)(=O)/C=C\C=C/S(=O)(=O)CCCC
  A = 43	B = -1	C = -38	D = 69*	E = ·	F = 2
> CCCCS(=O)(=O)/C=C\C1C2C=CC(C2)C1S(=O)(=O)CCCC (stereo not drawn)
  A = -1	B = 8	C = 0	D = 102	E = 7	F = -2
> CCOC(=O)c1sc2ncn(/N=C/c3ccc(O)c(OC)c3)c(=O)c2c1C
  A = 105*	B = -5	C = -16	D = 96	E = ·	F = -5
> COc1cc(/C=N/n2cnc3c(sc4nc(C)cc(C)c43)c2=O)ccc1O
  A = ·	B = ·	C = -2	D = ·	E = ·	F = ·

Some of these compounds in order of their number in Yeast UUG start, high to low.
| canonical_smiles | Yeast UUG start |
| --- | --- |
| CN(C)C(=O)c1cccc(-c2ccc3c(c2)[C@H]2[C@H](CCN2C(=O)c2ccncc2)[C@@H](CO)N3C)c1 | 2 |
| CNC1(C(N)=O)CCNCC1 | -11 |
| Cc1cccn2c(=O)c(/C=C(\C#N)C(=O)NC3CCS(=O)(=O)C3)c(Oc3ccc(F)cc3)nc12 (stereo not drawn) | -17 |
